These results are taken from patent US7741280 (CENTRE NATIONAL DE LA RECHERCHE SCIENTIFIQUE, dated 2010).

The assay has as its target T1, human CD154 muCD8 fusion protein, ANCELL Corporation (mouse; human, UniProt P01731, in part; P29965, in part).
T1 construct: Bought reagent; injected as analyte in the Biacore experiments; also called CD40L
Put plainly: SPR (Biacore 3000); CD40 muIg captured on rabbit anti-mouse Ig chip; CD40L as analyte at 4 concentrations from 62.5 to 500 nM. The procedure:
Rabbit antibodies directed against the constant region of mouse immunoglobulins were immobilized on a microchip. In the reference cell a monoclonal mouse antibody of isotype IgG2a (LG112) at 40 nM is immobilized with a flow of 5 µL/min for 2 minutes; in the cell of the ligand the recombinant CD40 associated with the constant region of the mouse IgG2a heavy chain (human CD40 muIg fusion protein, ANCELL Corporation, Bayport, Minn.) is immobilized under the same conditions.
The flow in the presence of the analytes is 10 µL/min for 5 minutes to study the association and, in the absence of analytes, the conditions are the same to study the dissociation.
The equilibrium constant is calculated at 54 nM.
In general terms: Surface plasmon resonance follows binding to a sensor surface in real time, without labels.

B1: human CD40 muIg fusion protein (recombinant CD40 associated with the constant region of the mouse IgG2a heavy chain), ANCELL Corporation (Fc fusion, UniProt P25942 21-193, looked up)
chain: EPPTACREKQYLINSQCCSLCQPGQKLVSDCTEFTETECLPCGESEFLDTWNRETHCHQHKYCDPNLGLRVQQKGTSETDTICTCEEGWHCTSEACESCVLHRSCSPGFGVKQIATGVSDTICEPCPVGFFSNVSSAFEKCHPWTSCETKDLVVQQAGTNKTDVVCGPQDRLR
notes: Bought reagent; Captured on the Biacore chip through rabbit anti-mouse immunoglobulin antibodies; not shown: constant region of the mouse IgG2a heavy chain
Broadly, the Kd is the concentration at which binding is half-saturated. Read a high Kd as a looser complex. Molecule B1 returned a Kd of 54 nM.
